From patent US10071985B2, “Therapeutic compounds” (Gilead Sciences, Inc., priority 2016, dated 2018) come the findings set out here.

A word on the CC50: it is the concentration at which the toxic effect on the cells reaches its halfway point. Lower therefore signals harm at low concentration.

A short description of this series: Test B: Cytotoxicity Assay. The note with it: human.

For `Cn1nc(NS(C)(=O)=O)c2c(Cl)ccc(-c3ccc(C#CC(C)(C)O)nc3[C@H](Cc3cc(F)cc(F)c3)NC(=O)Cn3nc(C(F)F)c4c3C(F)(F)[C@@H]3C[C@H]43)c21` [Compound A, reference compound], the CC50 at 5 days amounted to 21.8 µM. In the case of `Cn1nc(NS(C)(=O)=O)c2c(Cl)ccc(-c3ccc(C#CC(C)(C)O)nc3[C@H](Cc3cc(F)cc(F)c3)NC(=O)Cn3nc(C(F)(F)F)c4c3C(F)(F)[C@@H]3C[C@H]43)c21` [Compound B, reference compound] it was 14.5 µM.
